From PubChem BioAssay AID435006 (Sanford-Burnham Center for Chemical Genomics, 2010)
The list shows a part of the results, in another mix than the full data. Active and inactive are the calls of the source. No stated cut-off is given here; in the data, active means inhibition above about 48%; inactive means the rest.

Experiment: yeast-expressed human NALP3 blockade – luminescence, single concentration, confirmation (AID 435006)
Conditions: yeast expressing human NALP3, luminescence; at 10 µM; stronger effect = higher value

SMILES	inhibition
CC(C)(C)OC(=O)N1CCC(Nc2ccccc2)CC1	inactive: 46.5%
